The record followed here is ChEMBL document CHEMBL3352008, “Dualsteric muscarinic antagonists--orthosteric binding pose controls allosteric subtype selectivity” (J Med Chem, 2014).

The chains behind the UniProt entries cited, without tags or fusion partners.
UniProt P08172, whole entry W422A: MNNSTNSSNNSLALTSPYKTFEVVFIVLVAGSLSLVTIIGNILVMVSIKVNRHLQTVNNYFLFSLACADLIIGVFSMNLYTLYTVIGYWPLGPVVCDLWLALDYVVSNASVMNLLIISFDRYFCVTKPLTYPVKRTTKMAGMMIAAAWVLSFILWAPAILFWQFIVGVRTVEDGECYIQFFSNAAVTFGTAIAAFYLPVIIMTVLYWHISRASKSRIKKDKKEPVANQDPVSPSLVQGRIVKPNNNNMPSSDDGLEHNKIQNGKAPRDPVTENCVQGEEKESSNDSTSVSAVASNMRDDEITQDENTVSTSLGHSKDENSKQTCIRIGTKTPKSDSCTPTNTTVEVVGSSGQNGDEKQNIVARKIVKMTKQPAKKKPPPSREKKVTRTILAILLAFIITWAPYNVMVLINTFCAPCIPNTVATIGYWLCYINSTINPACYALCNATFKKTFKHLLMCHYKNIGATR
UniProt P08172, whole entry Y104A: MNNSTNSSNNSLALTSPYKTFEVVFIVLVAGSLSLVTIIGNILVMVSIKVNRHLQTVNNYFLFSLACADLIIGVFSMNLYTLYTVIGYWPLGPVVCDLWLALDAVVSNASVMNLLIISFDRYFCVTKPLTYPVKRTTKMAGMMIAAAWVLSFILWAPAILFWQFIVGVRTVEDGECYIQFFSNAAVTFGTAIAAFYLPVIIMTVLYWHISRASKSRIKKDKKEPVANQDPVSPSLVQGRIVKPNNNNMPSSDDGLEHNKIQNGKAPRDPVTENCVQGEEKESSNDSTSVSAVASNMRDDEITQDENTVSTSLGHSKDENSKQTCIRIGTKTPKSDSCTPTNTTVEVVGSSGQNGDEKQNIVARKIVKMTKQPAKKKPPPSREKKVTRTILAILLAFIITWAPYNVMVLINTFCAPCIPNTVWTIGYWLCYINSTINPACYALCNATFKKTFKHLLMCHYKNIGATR
UniProt P08172, whole entry Y177Q: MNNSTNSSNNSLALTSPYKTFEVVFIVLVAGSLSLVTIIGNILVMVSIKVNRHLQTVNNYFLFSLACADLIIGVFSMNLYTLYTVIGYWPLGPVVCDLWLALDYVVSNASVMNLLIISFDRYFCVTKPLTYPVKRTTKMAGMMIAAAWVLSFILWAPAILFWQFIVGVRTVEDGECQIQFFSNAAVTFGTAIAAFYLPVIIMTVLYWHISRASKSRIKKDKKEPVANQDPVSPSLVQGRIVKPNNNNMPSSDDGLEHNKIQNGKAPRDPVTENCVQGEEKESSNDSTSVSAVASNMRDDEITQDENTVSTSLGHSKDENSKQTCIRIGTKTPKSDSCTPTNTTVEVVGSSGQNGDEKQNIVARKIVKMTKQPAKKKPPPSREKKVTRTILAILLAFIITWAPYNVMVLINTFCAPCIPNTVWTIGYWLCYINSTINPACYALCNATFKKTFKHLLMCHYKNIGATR
UniProt P08172, whole entry Y177Q/T423H: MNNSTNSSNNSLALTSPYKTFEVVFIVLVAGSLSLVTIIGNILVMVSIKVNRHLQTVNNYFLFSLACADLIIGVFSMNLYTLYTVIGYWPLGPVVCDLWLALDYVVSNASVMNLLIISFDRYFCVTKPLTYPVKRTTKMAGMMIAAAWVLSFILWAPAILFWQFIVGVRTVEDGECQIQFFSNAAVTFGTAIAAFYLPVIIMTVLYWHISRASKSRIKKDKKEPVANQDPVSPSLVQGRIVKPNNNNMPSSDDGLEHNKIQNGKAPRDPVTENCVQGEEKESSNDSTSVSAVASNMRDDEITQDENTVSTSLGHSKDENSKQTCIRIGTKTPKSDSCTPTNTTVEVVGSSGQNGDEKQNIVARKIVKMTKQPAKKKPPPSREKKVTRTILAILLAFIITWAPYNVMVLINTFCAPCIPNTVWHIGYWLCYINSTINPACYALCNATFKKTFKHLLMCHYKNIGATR
UniProt P08172, whole entry: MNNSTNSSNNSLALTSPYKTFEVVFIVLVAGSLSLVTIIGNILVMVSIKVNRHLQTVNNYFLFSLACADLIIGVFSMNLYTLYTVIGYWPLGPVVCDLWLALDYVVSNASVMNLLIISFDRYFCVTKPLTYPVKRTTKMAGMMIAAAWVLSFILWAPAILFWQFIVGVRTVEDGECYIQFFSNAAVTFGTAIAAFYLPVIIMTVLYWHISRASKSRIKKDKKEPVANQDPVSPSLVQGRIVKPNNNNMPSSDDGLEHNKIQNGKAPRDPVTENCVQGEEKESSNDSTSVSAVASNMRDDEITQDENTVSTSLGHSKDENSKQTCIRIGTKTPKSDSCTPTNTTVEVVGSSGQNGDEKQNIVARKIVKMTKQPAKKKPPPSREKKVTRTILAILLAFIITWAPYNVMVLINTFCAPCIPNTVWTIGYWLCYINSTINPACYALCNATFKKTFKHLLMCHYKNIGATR
UniProt P08912, whole entry: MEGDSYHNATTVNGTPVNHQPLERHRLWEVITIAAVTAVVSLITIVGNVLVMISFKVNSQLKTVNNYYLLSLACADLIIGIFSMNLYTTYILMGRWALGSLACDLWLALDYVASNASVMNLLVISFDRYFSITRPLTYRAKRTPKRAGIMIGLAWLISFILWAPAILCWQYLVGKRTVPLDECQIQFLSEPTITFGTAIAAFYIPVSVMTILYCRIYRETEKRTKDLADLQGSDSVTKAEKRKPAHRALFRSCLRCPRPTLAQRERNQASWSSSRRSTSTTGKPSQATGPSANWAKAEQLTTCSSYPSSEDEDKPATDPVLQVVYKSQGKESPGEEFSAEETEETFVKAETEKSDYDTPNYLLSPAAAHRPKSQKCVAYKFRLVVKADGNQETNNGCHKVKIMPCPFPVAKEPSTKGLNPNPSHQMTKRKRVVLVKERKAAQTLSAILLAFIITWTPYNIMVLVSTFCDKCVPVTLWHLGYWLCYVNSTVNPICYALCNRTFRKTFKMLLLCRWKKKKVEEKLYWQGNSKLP

Usually Ki stands for a dissociation constant, usually derived from enzyme kinetics or from competition with a known ligand. A lower Ki goes with higher affinity.

Assay type in all cases: cell-based
For experiment [1], the target named is Muscarinic acetylcholine receptor M2 (Homo sapiens, UniProt P08172, W422A). Briefly: Displacement of [3H]-NMS from human muscarinic M2 W422A mutant expressed in Flp-In-CHO cells by liquid scintillation counting. An outline of the steps:
(§1)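 Separated by rapid filtration, counted by liquid scintillation. Means ± SEM of 3−4 independent experiments in triplicate; unpaired two-tailed t test versus wild type.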
(In general: Loss of bound radioactivity is the signal in a displacement assay; it reports binding, not function.)

The target in experiment [2] is Muscarinic acetylcholine receptor M2 (Homo sapiens, UniProt P08172, Y104A). Briefly: Displacement of [3H]-NMS from human muscarinic M2 Y104A mutant expressed in Flp-In-CHO cells by liquid scintillation counting. An outline of the steps:
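Bound separated either by rapid filtration or, in some cases, by centrifugation at 21000g, 15 °C, 20 min. Pellet washed once, resuspended, counted by liquid scintillation. Triplicate determinations.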

Experiment [3] addresses Muscarinic acetylcholine receptor M2 (Homo sapiens, UniProt P08172, Y177Q). Put plainly: Displacement of [3H]-NMS from human muscarinic M2 Y177Q mutant expressed in Flp-In-CHO cells by liquid scintillation counting. The essentials: as §1
Experiment [4] has as its target Muscarinic acetylcholine receptor M5 (Homo sapiens, UniProt P08912). Put plainly: Displacement of [3H]-NMS from wild-type human muscarinic M5 receptor expressed in CHO-K1 cells by liquid scintillation counting. The essentials:
as §1

The target in experiment [5] is Muscarinic acetylcholine receptor M2 (Homo sapiens, UniProt P08172, T423H/Y177Q). Put plainly: Displacement of [3H]-NMS from human muscarinic M2 Y177Q/T423H mutant expressed in Flp-In-CHO cells by liquid scintillation counting. An outline of the steps: as §1
Experiment [6] addresses Muscarinic acetylcholine receptor M2 (Homo sapiens, UniProt P08172). Briefly: Displacement of [3H]-NMS from wild-type human muscarinic M2 receptor expressed in Flp-In-CHO cells by liquid scintillation counting. The essentials: as §1

As to `CN1[C@@H]2C[C@@H](OC(=O)[C@H](CO)c3ccccc3)C[C@H]1[C@@H]1O[C@@H]12` [SCOPOLAMINE], the Ki was 3.31 nM in experiment [1]; 28.8 nM in experiment [2]; 3.31 nM in experiment [3]; 1.29 nM in experiment [4]; 3.55 nM in experiment [5]; 3.02 nM in experiment [6].
